# Measurements: PMC9090141 (Pediatric blood & cancer, 2021)
# Tested on: pediatric patients with recurrent or refractory solid and CNS tumors
# Conditions: IV on day 1 and 15 of a 28-day cycle
smiles,measurement,value
"COc1cccc(OCCCN)c1-c1cc(Nc2cnc(C#N)cn2)n[nH]1 [prexasertib, Prexasertib mesylate monohydrate]",recommended Phase 2 dose (RP2D),150 mg/m^2

# Counter-ions that a name gives are not always drawn.
